# Laboratory results taken from patent US20040162235A1, “Delivery of siRNA to cells using polyampholytes” (priority 2003, published 2004).
# Test: Red blood cell (RBC) hemolysis assay
# Format: cell-based
# Details: 37° C., read-out: Percent Hemolysis
# Procedure: C. […] RBCs were harvested by centrifuging whole blood for 4 min. They were washed three times with 100 mM dibasic sodium phosphate at the desired pH, and resuspended in the same buffer to yield the initial volume. They were diluted 10 times in the same buffer, and 200 μL of this suspension was used for each tube. This yields […] RBCs per tube. Each tube contained 800 μL of buffer, 200 μL of the RBC suspension, and the peptide with or without polymer. Each sample was then repeated to verify reproducibility. The tubes were incubated for 30 minutes in a 37° C. water bath. They were spun for 5 min at full speed in the microcentrifuge. Lysis was determined by measuring the absorbance of the supernatant at 541 nm, reflecting the amount of hemoglobin that had been released into the supernatant. Percent hemolysis was calculated assuming 100% lysis to be measured by the hemoglobin released by the red blood cells in water; controls of RBCs in buffer with no peptide were also run.
smiles,measurement,setting,value
CC[C@H](C)[C@H](NC(=O)CNC(=O)CCC(=O)O)C(=O)NCC(=O)N[C@@H](C)C(=O)N[C@H](C(=O)N[C@@H](CC(C)C)C(=O)N[C@@H](CCCCNC(=O)CCC(=O)O)C(=O)N[C@H](C(=O)N[C@@H](CC(C)C)C(=O)N[C@H](C(=O)N[C@H](C(=O)NCC(=O)N[C@@H](CC(C)C)C(=O)N1CCC[C@H]1C(=O)N[C@@H](C)C(=O)N[C@@H](CC(C)C)C(=O)N[C@H](C(=O)N[C@@H](CO)C(=O)N[C@@H](Cc1c[nH]c2ccccc12)C(=O)N[C@H](C(=O)N[C@@H](CCCCNC(=O)CCC(=O)O)C(=O)N[C@@H](CCCNC(=N)N)C(=O)N[C@@H](CCCCNC(=O)CCC(=O)O)C(=O)N[C@@H](CCCNC(=N)N)C(=O)N[C@@H](CCC(N)=O)C(=O)N[C@@H](CCC(N)=O)C(=O)O)[C@@H](C)CC)[C@@H](C)CC)[C@@H](C)O)[C@@H](C)O)C(C)C)C(C)C [Succinyl-Melittin],hemolysis,"pH 5.4, 30 minutes",5%
same,hemolysis,"pH 7.5, 30 minutes",2%

# Where two headings read alike, the source gives them in different places.
